{"source": "paper PMC4762884", "about": "(Nature Communications, 2016)", "proteins": {"B1": {"name": "Stimulator of interferon genes (STING), endogenous in THP1 cells (natural protein)", "chain": "MPHSSLHPSIPCPRGHGAQKAALVLLSACLVTLWGLGEPPEHTLRYLVLHLASLQLGLLLNGVCSLAEELRHIHSRYRGSYWRTVRACLGCPLRRGALLLLSIYFYYSLPNAVGPPFTWMLALLGLSQALNILLGLKGLAPAEISAVCEKGNFNVAHGLAWSYYIGYLRLILPELQARIRTYNQHYNNLLRGAVSQRLYILLPLDCGVPDNLSMADPNIRFLDKLPQQTGDHAGIKDRVYSNSIYELLENGQRAGTCVLEYATPLQTLFAMSQYSQAGFSREDRLEQAKLFCRTLEDILADAPESQNNCRLIAYQEPADDSSFSLSQEVLRHLRQEEKEEVTVGSLKTSAVPSTSTMSQEPELLISGMEKPLPLRTDFS", "notes": "source: endogenous, THP1 lysate"}}, "biological_target": "the molecule itself", "experiment": "non-reducing SDS-PAGE with immunoblotting"}
{"protein": "B1", "values": [{"measurement": "stoichiometry N", "result": 2}]}
